# PubChem BioAssay (Tox21)
# Only a part is listed here, and it is no random draw. Results filed as inconclusive are left out. Calls of active or inactive are those of the source. Calls follow the shape of the dose curve; as a rule, active = well fitted cell-killing curve with a large enough effect in the repeat runs; inconclusive = weak or mixed curves, or effect the other way; inactive = no such curve, though single readings can be large or run the other way.
# Test: Caspase-3/7 induction in CHO-K1 cells by small molecules, qHTS cell viability counter screen (AID 1346979); also: nearly all actives have a fitted effect of over 35% in size
# Settings: CellTiter-Fluor fluorescence, 17 h; series mostly up to 92.4 µM; activity change, negative = cytotoxicity: at the top concentration
# Description: National Center for Advancing Translational Sciences [NCATS]
# NIH Chemical Genomics Center [NCGC]
# U.S. Environmental Protection Agency [EPA]
# National Institutes of Environmental Health Sciences [NIEHS]
# National Toxicology Program [NTP]
# U.S. Food and Drug Administration [FDA]
# Apoptosis is a process of programmed cell death and plays a central role in the development of multicellular organisms. It is a highly regulated process and induces cell death by activating caspases, which are the members of cysteine aspartic acid-specific protease (caspase) family. Caspases involved in apoptosis are classified by their mechanism of action as initiator caspases (caspase-2, -8, -9 and -10) and executioner caspases (caspase-3, -6, and -7). Inhibition of apoptosis results in number of cancers, autoimmune diseases, inflammatory diseases and viral infection. To identify small molecule compounds that induce apoptosis, a homogeneous, luminescent Caspase-Glo 3/7 assay was used. Wild type CHO-K1 cells were used to screen Tox21 libraries for identifying caspase-3/7 activity inducers. Also cytotoxicity of the compounds was tested in parallel by measuring the cell viability using CellTiter-Fluor assay system in the same wells.
# Tox21 Assay Protocol Summary:
# CHO-K1 cells were dispensed at 1,500 per well in 5uL of culture medium into white solid bottom 1536-well plates (Corning Life Sciences, Corning, NY) using a Multidrop Combi (Thermo Scientific, Waltham, MA) dispenser. The assay plates were incubated at 37 C and 5% CO2 for 5hr, and then 23nL of compounds dissolved in DMSO and positive control were transferred using a Pintool station (Wako, San Diego, CA). The assay plates were incubated at 37C and 5% CO2 for 17hr. For cytotoxicity read, after 16hr incubation at 37C, 1uL CellTiter-Fluor reagent (Promega Corporation, Madison, WI) was added to each well of the assay plates using Flying Reagent Dispenser (FRD, Aurora Discovery, San Diego, CA). After 1hr incubation at 37C and 5% CO2, the fluorescence signal was quantified using a ViewLux plate reader (PerkinElmer, Shelton, CT).
# % is scaled to controls: 0 for no effect and ±100 for the full control effect; potency is read from the fitted curve at half-maximal effect.
Compound,"activity change, negative = cytotoxicity",Potency
C/C1=C2N=C(/C=C3N=C(/C(C)=C4\[N-][C@@](C)([C@@H]5N=C1[C@](C)(CCC(=O)NC[C@@H](C)OP(=O)([O-])O[C@H]1[C@@H](O)[C@@H](n6cnc7cc(C)c(C)cc76)O[C@@H]1CO)[C@H]5CC(N)=O)[C@@](C)(CC(N)=O)[C@@H]4CCC(N)=O)[C@@](C)(CC(N)=O)[C@@H]\3CCC(N)=O)C(C)(C)[C@@H]/2CCC(N)=O.[C-]#N.[Co+3],inactive: 14.2% [at 42.5 µM],
Nc1cc([N+](=O)[O-])cc([N+](=O)[O-])c1O,,active: 24.9 µM
COc1ccc([N+](=O)[O-])cc1[N+](=O)[O-],inactive: 6.26%,
[NH4+].[O-][Cl+3]([O-])([O-])[O-],,inactive
OCCSCCO,,inactive
COP(C)(=O)OC,,inactive
O=[N+]([O-])OCC(CO[N+](=O)[O-])(CO[N+](=O)[O-])CO[N+](=O)[O-],inactive: -1.54%,
O=[N+]([O-])c1cccc([N+](=O)[O-])c1,inactive: 9.28%,
N#CBr,inactive: 3.67%,
CCOP(=O)(CC)OCC,inactive: 6.06%,
O=[N+]([O-])[O-].[NH4+],,inactive
CP(=O)(O)OCCC[Si](O)(O)O,inactive: 0.397%,
CC(C)N(CCO)C(C)C,inactive: 1.63%,
CCN(CC)CCCl,inactive: -8.75%,
Cc1c([N+](=O)[O-])cccc1[N+](=O)[O-],,inactive
N=C(N)N[N+](=O)[O-],inactive: 8.15%,
CN(C)CCCl,inactive: 1.4%,
